PubChem BioAssay (NCATS)
This is a selection; strong and weak results do not stand in their true shares. Inconclusive results are not listed. Active and inactive are the calls of the source. Unless noted, calls follow the shape of the dose curve; as a rule, active = well fitted curve in the direction sought with a large enough effect; inconclusive = small, poorly fitted or top-dose-only effect, or another doubt; inactive = no such curve, though single readings can be large; an effect the other way counts as inactive or inconclusive.

By UniProt entry, the sequences of proteins in these tests, tags left out. Where a name states a change or a piece, a line headed by the entry shows the natural chain unless it says otherwise.
UniProt Q99828: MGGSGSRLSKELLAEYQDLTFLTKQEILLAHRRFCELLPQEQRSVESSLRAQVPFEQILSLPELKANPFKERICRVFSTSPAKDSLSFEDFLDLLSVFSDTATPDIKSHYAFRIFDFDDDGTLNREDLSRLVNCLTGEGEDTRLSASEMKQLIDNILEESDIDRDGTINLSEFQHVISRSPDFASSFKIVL
UniProt P08684, whole entry, looked up: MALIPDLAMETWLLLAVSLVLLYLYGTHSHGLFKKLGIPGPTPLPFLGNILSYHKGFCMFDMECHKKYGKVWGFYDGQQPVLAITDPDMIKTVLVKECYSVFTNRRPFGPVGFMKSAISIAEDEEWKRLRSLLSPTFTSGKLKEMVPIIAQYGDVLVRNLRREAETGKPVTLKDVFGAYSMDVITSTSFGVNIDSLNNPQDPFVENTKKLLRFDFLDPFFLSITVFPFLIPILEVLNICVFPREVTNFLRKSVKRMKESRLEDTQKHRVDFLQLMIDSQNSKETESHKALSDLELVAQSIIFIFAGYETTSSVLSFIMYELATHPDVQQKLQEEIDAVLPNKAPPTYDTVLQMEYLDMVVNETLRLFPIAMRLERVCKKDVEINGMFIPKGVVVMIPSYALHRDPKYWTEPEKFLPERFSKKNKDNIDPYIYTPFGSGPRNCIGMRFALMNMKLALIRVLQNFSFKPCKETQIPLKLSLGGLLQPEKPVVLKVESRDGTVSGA
UniProt P11712, whole entry, looked up: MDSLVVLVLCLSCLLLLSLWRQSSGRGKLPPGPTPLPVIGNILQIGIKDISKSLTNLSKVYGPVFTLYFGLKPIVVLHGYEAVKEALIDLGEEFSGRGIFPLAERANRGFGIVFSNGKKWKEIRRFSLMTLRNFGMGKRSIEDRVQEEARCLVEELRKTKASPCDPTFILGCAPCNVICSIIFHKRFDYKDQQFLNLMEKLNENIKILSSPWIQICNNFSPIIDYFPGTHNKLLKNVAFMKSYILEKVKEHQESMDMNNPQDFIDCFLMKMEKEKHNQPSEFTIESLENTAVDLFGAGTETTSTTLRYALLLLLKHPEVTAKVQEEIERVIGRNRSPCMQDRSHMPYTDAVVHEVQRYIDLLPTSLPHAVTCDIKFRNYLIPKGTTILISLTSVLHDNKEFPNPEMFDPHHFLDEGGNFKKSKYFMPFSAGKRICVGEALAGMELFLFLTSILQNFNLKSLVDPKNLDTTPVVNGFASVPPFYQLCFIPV
UniProt P07203, whole entry, looked up: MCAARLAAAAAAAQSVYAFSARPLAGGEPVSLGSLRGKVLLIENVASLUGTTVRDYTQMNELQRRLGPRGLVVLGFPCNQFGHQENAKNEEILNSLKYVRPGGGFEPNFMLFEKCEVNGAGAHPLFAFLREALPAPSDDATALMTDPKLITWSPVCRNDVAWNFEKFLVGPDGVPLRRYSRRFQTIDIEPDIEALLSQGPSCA
UniProt P36969, whole entry, looked up: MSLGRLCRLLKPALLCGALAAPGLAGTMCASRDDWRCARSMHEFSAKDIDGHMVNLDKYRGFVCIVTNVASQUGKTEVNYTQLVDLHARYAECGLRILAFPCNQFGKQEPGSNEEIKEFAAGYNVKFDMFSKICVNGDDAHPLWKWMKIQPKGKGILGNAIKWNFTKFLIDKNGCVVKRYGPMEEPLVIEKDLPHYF
UniProt Q07343: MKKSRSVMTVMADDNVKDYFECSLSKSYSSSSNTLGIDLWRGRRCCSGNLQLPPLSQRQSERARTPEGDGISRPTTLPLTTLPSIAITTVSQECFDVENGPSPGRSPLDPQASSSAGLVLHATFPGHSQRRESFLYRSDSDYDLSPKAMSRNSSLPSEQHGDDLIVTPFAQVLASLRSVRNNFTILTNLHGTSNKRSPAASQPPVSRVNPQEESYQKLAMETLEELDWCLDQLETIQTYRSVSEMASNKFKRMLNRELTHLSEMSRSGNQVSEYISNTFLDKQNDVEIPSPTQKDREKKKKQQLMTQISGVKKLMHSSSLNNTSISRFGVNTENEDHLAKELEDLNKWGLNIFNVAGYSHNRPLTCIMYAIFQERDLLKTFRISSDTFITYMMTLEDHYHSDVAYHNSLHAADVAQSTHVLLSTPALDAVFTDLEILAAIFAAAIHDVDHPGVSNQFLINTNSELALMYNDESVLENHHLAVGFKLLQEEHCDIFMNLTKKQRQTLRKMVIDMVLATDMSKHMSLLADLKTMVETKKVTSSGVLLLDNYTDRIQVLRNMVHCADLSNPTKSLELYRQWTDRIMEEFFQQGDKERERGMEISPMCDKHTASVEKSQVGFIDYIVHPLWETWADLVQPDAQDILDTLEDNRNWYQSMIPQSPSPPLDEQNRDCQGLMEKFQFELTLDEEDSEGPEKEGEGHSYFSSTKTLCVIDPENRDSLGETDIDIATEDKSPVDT
UniProt A8B2U2: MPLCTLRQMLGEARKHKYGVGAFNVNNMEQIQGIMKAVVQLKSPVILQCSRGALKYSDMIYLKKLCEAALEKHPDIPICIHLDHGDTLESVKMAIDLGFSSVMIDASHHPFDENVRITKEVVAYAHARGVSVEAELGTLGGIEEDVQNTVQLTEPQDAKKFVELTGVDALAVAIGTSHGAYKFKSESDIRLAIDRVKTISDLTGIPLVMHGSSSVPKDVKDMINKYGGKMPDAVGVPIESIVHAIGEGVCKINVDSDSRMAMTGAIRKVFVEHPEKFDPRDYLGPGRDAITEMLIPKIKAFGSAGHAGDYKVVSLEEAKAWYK
UniProt P00883: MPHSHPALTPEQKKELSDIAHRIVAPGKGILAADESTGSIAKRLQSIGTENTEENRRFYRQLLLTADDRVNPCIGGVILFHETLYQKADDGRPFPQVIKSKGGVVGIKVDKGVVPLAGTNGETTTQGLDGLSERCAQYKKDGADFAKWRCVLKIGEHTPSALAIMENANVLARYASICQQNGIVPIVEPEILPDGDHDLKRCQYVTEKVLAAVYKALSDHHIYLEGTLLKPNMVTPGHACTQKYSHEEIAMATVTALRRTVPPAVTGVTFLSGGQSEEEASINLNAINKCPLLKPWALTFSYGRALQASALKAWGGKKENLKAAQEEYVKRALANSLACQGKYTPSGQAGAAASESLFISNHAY

Legend:
[1] = P-glycoprotein substrates identified in KB-8-5-11 adenocarcinoma cell line, qHTS therapeutic library screen (AID 1346987); details: KB-8-5-11 (P-gp overexpressing) viability, CellTiter-Glo, 72 h; at 44.5 µM (top of the series) unless noted; also: % is scaled to controls: 0 for no effect and ±100 for the full control effect; nearly all actives have a fitted effect of over 65% in size
[2] = biological target: Calcium and integrin-binding protein 1 (Homo sapiens) (UniProt Q99828); test: Primary qHTS for Identification of Calcium Integrin Binding Protein 1 (CIB1) Competitor (AID 1508620); details: CIB1-GST / FITC-alphaIIb peptide fluorescence polarization; at 114 µM (top of the series) unless noted;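 also: GST tagged CIB1 binding a fluorescein labelled alphaIIb integrin peptide tracer; top concentration of the series differs between compounds; % is scaled to controls: 0 for no effect and ±100 for the full control effect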
[3] = biological target: Cytochrome P450 3A4 (Homo sapiens) (UniProt P08684); test: Cytochrome P450 family 3 subfamily A member 4 (CYP3A4) small molecule antagonists: luciferase qHTS assay (AID 1645841; active = well fitted curve in the direction sought with a large enough effect in the repeat runs; an effect the other way counts as inactive or inconclusive; also: nearly all actives have a fitted effect of over 45% in size)
[4] = biological target: Cytochrome P450 2C9 (Homo sapiens) (UniProt P11712); test: Cytochrome P450 family 2 subfamily C member 9 (CYP2C9) small molecule antagonists: luciferase qHTS assay (AID 1645842; active = well fitted curve in the direction sought with a large enough effect in the repeat runs; an effect the other way counts as inactive or inconclusive; also: % is scaled to controls: 0 for no effect and ±100 for the full control effect; nearly all actives have a fitted effect of over 55% in size); details: P450-Glo CYP2C9 enzyme assay, luciferin luminescence; at 57.4 µM (top of the series) unless noted
In short: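 P450-Glo CYP2C9 system: proluciferin substrate with enzyme in mix containing 0.4% BSA, 10 min at room temperature, then NADPH regeneration solution added and incubated 1 h at 37C. Detection reagent stopped reaction; luminescence read after 20 min as RLU.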

[5] = biological target: Glutathione peroxidase 1 (Homo sapiens) (UniProt P07203); test: Primary qHTS Assay for Inhibitors of Recombinant Selenoprotein Glutathione Peroxidase 1 (GPX1) (AID 1845191); details: recombinant GPX1, GR-coupled NADPH fluorescence, 15 min; activity, negative = inhibition: at 48.8 µM (top of the series); also: nearly all actives have a fitted effect of over 65% in size
In short: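 NADPH consumption tracked by fluorescence at 340/450 nm between t=0 and t=15 min, room temperature. Final mix: 10 nM GPX1, 100 nM glutathione reductase, 1 mM GSH, 0.5 mM NADPH, 0.5 mM cumene hydroperoxide, 0.01% BSA; 30 min compound–enzyme preincubation.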

[6] = biological target: Phospholipid hydroperoxide glutathione peroxidase GPX4 (Homo sapiens) (UniProt P36969); test: Primary qHTS Assay for Inhibitors of Recombinant Selenoprotein Glutathione Peroxidase 4 (GPX4) (AID 1845192); details: recombinant GPX4, GR-coupled NADPH fluorescence, 15 min; activity change, negative = inhibition: at 50 µM (top of the series); also: % is scaled to controls: 0 for no effect and ±100 for the full control effect; nearly all actives have a fitted effect of over 65% in size
In short: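 NADPH consumption followed by fluorescence at 340/450 nm, t=0 and after 15 min at room temperature. Reaction started with cumene hydroperoxide (0.5 mM final) after 30 min compound–GPX4 preincubation; final 200 nM GPX4, 100 nM GR, 1 mM GSH, 0.5 mM NADPH.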

[7] = biological target: Luciferin 4-monooxygenase (Photinus pyralis) (UniProt P08659); test: Primary firefly luciferase (FLuc) qHTS assay for identification of artifact compounds. (AID 1845220); details: purified firefly luciferase, luminescence, 5 min; activity change, negative = inhibition: at 54.1 µM (top of the series); also: nearly all actives have a fitted effect of over 60% in size;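 as to activity change, negative = inhibition: plate controls were DMSO vehicle for no effect and no enzyme for full effect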
In short: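 Compounds sat 15 min at room temperature with 10 uM luciferin and 10 uM ATP (pH 7.6 Tris acetate). Firefly luciferase (10 nM final) was then added, and luminescence was read 5 min later. Data normalized to no-enzyme and DMSO controls were Hill-fitted.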

[8] = system: Nanoluciferase (engineered Oplophorus gracilirostris luciferase); test: Primary Nanoluciferase (NLuc) qHTS assay for identification of artifact compounds. (AID 1845222); details: NLuc-conditioned medium, Nano-Glo luminescence, 5 min; at 54.1 µM (top of the series);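 also: 0% = DMSO and -100% = no enzyme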
In short: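 Luminescence from secreted NLuc (filtered, 1:55-diluted S16 cell medium) read 5 min after Nano-Glo substrate; compounds preincubated 15 min, RT. Hill fits of inhibition normalized to DMSO and no-enzyme.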

[9] = Primary redox qHTS assay for identification of artifact compounds. (AID 1845223); details: Amplex Red/HRP redox cycling with DTT, fluorescence; at 53.8 µM (top of the series);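 also: 0% = DMSO and 100% = reference compound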
In short: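 Redox-cycling detection via DTT (250 uM final) oxidation coupled to Amplex Red (25 uM)/HRP (250 mU/mL) in HBSS. 15 min preincubation plus 30 min after DTT, room temperature. Ex/Em 525/598 nm; 4-parameter Hill fit against DMSO and 10 uM DA3003.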

CRL-7250 = normal cell line; test: Cytotoxic Profiling of Annotated Libraries Using Quantitative High-Throughput Screening (AID 1296008); details: Five cell lines viability, CellTiter-Glo ATP luminescence, 48-72 h; stronger effect = lower value; also: nearly all actives have a fitted effect of over 60% in size
HEK293 = test: as above; details: Five cell lines viability, CellTiter-Glo ATP luminescence, 48-72 h; max response: stronger effect = lower value
KB-3-1 = test: as above; details: Five cell lines viability, CellTiter-Glo ATP luminescence, 48-72 h, stronger effect = lower value
NIH3T3 [10] = test: as above; details: Five cell lines viability, CellTiter-Glo ATP luminescence, 48-72 h; stronger effect = lower value
C33A = test: Primary qHTS to identify gynecologic anti-cancer compounds using libraries of approved drugs and bioactive compounds (AID 1345084); details: Gynecologic cancer cell panel viability, ATPlite luminescence, 48 h; at 57.5 µM (top of the series) unless noted; also: % is scaled to controls: 0 for no effect and ±100 for the full control effect; nearly all actives have a fitted effect of over 55% in size
In short: (§1)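 Measured: luminescence after ATPlite addition (15 min, RT). Exposure: 48 h, 37 C, 5% CO2.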

CAOV3 = test: as above; details: Gynecologic cancer cell panel viability, ATPlite luminescence, 48 h; at 57.5 µM (top of the series) unless noted
In short: as §1

CASKI = test: as above; details: Gynecologic cancer cell panel viability, ATPlite luminescence, 48 h; at 57.5 µM (top of the series) unless noted
In short: as §1

Es-2 = test: as above; details: Gynecologic cancer cell panel viability, ATPlite luminescence, 48 h; at 57.5 µM (top of the series) unless noted
In short: as §1

HeLa = test: as above; details: Gynecologic cancer cell panel viability, ATPlite luminescence, 48 h; at 57.5 µM (top of the series) unless noted
In short: as §1

Hek293T = test: as above; details: Gynecologic cancer cell panel viability, ATPlite luminescence, 48 h, control line for the selectivity index; at 57.5 µM (top of the series) unless noted
In short: as §1

JEG-3 = test: as above; details: Gynecologic cancer cell panel viability, ATPlite luminescence, 48 h; at 57.5 µM (top of the series) unless noted
In short: as §1

OV90 = test: as above; details: Gynecologic cancer cell panel viability, ATPlite luminescence, 48 h; at 57.5 µM (top of the series) unless noted
In short: as §1

SKOV3 = test: as above; details: Gynecologic cancer cell panel viability, ATPlite luminescence, 48 h; at 57.5 µM (top of the series) unless noted
In short: as §1

Tov-21-G = test: as above; details: Gynecologic cancer cell panel viability, ATPlite luminescence, 48 h; at 57.5 µM (top of the series) unless noted
In short: as §1

Tov112D = test: as above; details: Gynecologic cancer cell panel viability, ATPlite luminescence, 48 h; at 57.5 µM (top of the series) unless noted
In short: as §1

[11] = Primary fluorescence-based thiol-reactive (MSTI) qHTS assay for identification of artifact compounds. (AID 1845221); details: MSTI thiol-reactivity probe, 1 h; at 53.8 µM (top of the series);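 also: thiol-reactive compounds lower the probe fluorescence signal; nearly all actives have a fitted effect of over 65% in size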
In short: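 Reactivity toward the thiol probe MSTI (4 uM) is scored by fluorescence at Ex/Em 525/598 nm after 1 h at room temperature. Acetyl-MSTI and MSTI define the activity scale.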

HaCat = test: Cytotoxic Profiling of Annotated Libraries Using Quantitative High-Throughput Screening (AID 1296008); details: Five cell lines viability, CellTiter-Glo ATP luminescence, 48-72 h; stronger effect = lower value; also: nearly all actives have a fitted effect of over 60% in size
NIH3T3 [12] = test: qHTS assay to identify novel small-molecules to repurpose for Merkel cell carcinoma treatment (AID 1296009); details: MCC and control cell lines, CellTiter-Glo viability, 72 h; at 44.8 µM (top of the series); also: nearly all actives have a fitted effect of over 60% in size
[13] = NFAT Signaling Pathway (AID 444; active = well fitted curve in either direction with a large enough effect, not every such curve was filed as active;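 also: carbachol stimulus at about its EC50 of 1 µM final; % is scaled to controls: 0 for no effect and ±100 for the full control effect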); details: Jurkat NFAT-bla M1, carbachol, beta-lactamase ratio, 5 h; at 7.69 µM (top of the series) unless noted
[14] = Stat Signaling Pathway (AID 446; active = well fitted curve in either direction with a large enough effect, not every such curve was filed as active;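 also: ME-180 cervical cancer cells given 40 pM IL-6 alongside compound; SIE-controlled beta-lactamase reporter measured as 460/530 nm FRET emission ratio; % is scaled to controls: 0 for no effect and ±100 for the full control effect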); details: ME-180 (cervical carcinoma) SIE beta-lactamase reporter, IL-6 stimulated, 5 h; at 7.69 µM (top of the series) unless noted
In short: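 Overnight-plated ME-180 cells bearing a STAT Inducible Element beta-lactamase reporter; 5 h co-exposure to compound and 40 pM IL-6; values normalized to 300 pM IL-6 and 125 nM JAK inhibitor controls.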

[15] = biological target: Mitogen-activated protein kinase 10 (Mus musculus) (UniProt Q61831); test: JNK3 AlphaScreen Assay (AID 530; active = well fitted curve in either direction with a large enough effect, not every such curve was filed as active;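 also: kinase came from lysate of stimulated human HepG2 cells; signal reports phosphorylation of biotinylated GST-cJun 1-79 at Ser73 with 10 µM ATP; % is scaled to controls: 0 for no effect and ±100 for the full control effect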); details: JNK3 lysate, c-Jun phosphorylation; at 11.4 µM (top of the series) unless noted
In short: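 Kinase buffer: 20 mM Tris-HCl pH 7.6, 10 mM MgCl2, 1 mM DTT, 0.1 mM Na3VO4, 0.01% Tween-20; ATP 10 uM. Substrate biotin-GST-cJun(1-79), enzyme from activated HepG2 lysates. Detection by Ser73 phospho-antibody AlphaScreen.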

[16] = biological target: 3',5'-cyclic-AMP phosphodiesterase 4B (Homo sapiens) (UniProt Q07343); test: qHTS Assay for Inhibitors of PDE-IV (AID 607; active = well fitted activation curve with a large enough effect in the main read-out, with a control signal flat, not every such curve was filed as active; also: % of control where 0% means no effect); details: HEK293 ACTOne CNG channel cells, membrane potential fluorescence; at 22.9 µM (top of the series)
In short: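 Live HEK293 cells with a modified cyclic nucleotide-gated (CNG) channel report intracellular cAMP via membrane-potential dye fluorescence (ex 535/em 590 nm). Endogenous PDE-IV was targeted. Compounds were tested at up to 22.9 uM final; RO 20-1724 100 uM served as control.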

[17] = qHTS Assay for Inhibitors of Fructose-1,6-bisphosphate Aldolase from Giardia Lamblia: Giardia lamblia growth inhibition (AID 2785); details: Giardia lamblia trophozoite growth inhibition; at 38.3 µM (top of the series); also: % is scaled to controls: 0 for no effect and ±100 for the full control effect; nearly all actives have a fitted effect of over 70% in size
In short: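 Whole-parasite growth test: Giardia WB trophozoites in TYI-S-33 (pH 7.0), 100 per well, incubated 48 h at 37C with compound. ATP content was read by ATPlite luminescence.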

[18] = qHTS Assay for Inhibitors of Fructose-1,6-bisphosphate Aldolase from Giardia Lamblia: Mammalian cellular toxicity (AID 2786); details: mammalian cell viability counter-screen; at 57.5 µM (top of the series)
In short: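 Mammalian cytotoxicity surrogate: Chinese hamster ovary cells exposed to compound for 48 h at 37 °C. Cellular ATP then measured with ATPlite reagent, 20 min incubation.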

[19] = biological target: Fructose-bisphosphate aldolase (Giardia intestinalis (strain ATCC 50803 / WB clone C6)) (UniProt A8B2U2); test: qHTS Assay for Inhibitors of Fructose-1,6-bisphosphate Aldolase from Giardia Lamblia: Primary screen confirmation (AID 2787); details: purified Giardia aldolase enzyme activity; at 57.5 µM (top of the series);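 also: aldolase product measured through coupled diaphorase step turning resazurin into fluorescent resorufin; % is scaled to controls: 0 for no effect and ±100 for the full control effect; nearly all actives have a fitted effect of over 45% in size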
In short: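 FBPA (40 nM in enzyme reagent, with 30 uM ZnCl2) was preincubated 10 min at RT with compound up to 57.5 uM final. Substrate plus coupled detection system was then added, and fluorescence (525/598 nm) was read after 20 min at RT.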

[20] = biological target: Fructose-bisphosphate aldolase A (Oryctolagus cuniculus) (UniProt P00883); test: qHTS Assay for Inhibitors of Fructose-1,6-bisphosphate Aldolase from Giardia Lamblia: Rabbit FBPA Selectivity (AID 2794); details: Rabbit muscle FBPA enzyme inhibition, selectivity counter-screen; at 57.5 µM (top of the series)
In short: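 Glyceraldehyde-3-phosphate-coupled detection measures rabbit Class I aldolase turnover via AmpLite Red fluorescence. Compounds (final up to 57.5 uM) preincubated 10 min; signal read 20 min post-substrate at RT.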

[21] = qHTS Assay for Inhibitors of Fructose-1,6-bisphosphate Aldolase from Giardia Lamblia: Coupling assay counterscreen confirmation (AID 2795); details: GAPDH coupling enzyme counterscreen, biochemical; at 57.5 µM (top of the series); also: % is scaled to controls: 0 for no effect and ±100 for the full control effect; nearly all actives have a fitted effect of over 55% in size
In short: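 Setup: coupling enzyme reagent, compound pin-transferred to up to 57.5 uM final. Incubation: 10 min RT, then substrate + AmpLite Red for 20 min RT. Detection: fluorescence 525/598 nm.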

O=C(O[C@H]1CN2CCC1CC2)C1NCc2ccccc2[C@@H]1c1ccccc1 (some centres not stated)
inactive: activity change, negative = cytotoxicity [1] -28% | activity change, negative = inhibition [2] 0.439% | Potency [3] | activity change, negative = inhibition [4] 3.13% | activity, negative = inhibition [5] -16.7% | activity change, negative = inhibition [6] -0.31% | activity change, negative = inhibition [7] -30% | activity, negative = inhibition [8] -15.3% | redox activity (% of DA3003) [9] 19.8% | max response (CRL-7250) -3.21% | max response (HEK293) -23.8% | max response (KB-3-1) -16.3% | max response (NIH3T3 [10]) -5.14% | activity change, negative = cytotoxicity (C33A) -2.37% | activity change, negative = cytotoxicity (CAOV3) 0.516% | activity change, negative = cytotoxicity (CASKI) 13% | activity change, negative = cytotoxicity (Es-2) 1.09% | activity change, negative = cytotoxicity (HeLa) -1.44% | activity change, negative = cytotoxicity (Hek293T) -7.47% | activity change, negative = cytotoxicity (JEG-3) -1.59% | activity change, negative = cytotoxicity (OV90) 2.88% | activity change, negative = cytotoxicity (SKOV3) 24.7% | activity change, negative = cytotoxicity (Tov-21-G) 3.64% | activity change, negative = cytotoxicity (Tov112D) -1.64%

CN(C(=O)Cc1ccc(Cl)c(Cl)c1)[C@H]1CCCC[C@H]1N1CCCC1
inactive: activity change, negative = cytotoxicity [1] -8.53% | activity change, negative = inhibition [2] 4.47% | outcome [5] | activity change, negative = inhibition [6] 7.85% | outcome [7] | activity change, negative = thiol reactive [11] 25.8% | activity, negative = inhibition [8] -0.53% | redox activity (% of DA3003) [9] 1.28% | max response (CRL-7250) -18.9% | max response (HEK293) -117% | max response (HaCat) -22% | max response (KB-3-1) 1.19% | outcome (NIH3T3 [10]) inactive; activator | outcome (NIH3T3 [12]) inactive; activator

C(Cc1nn[nH]n1)c1nn[nH]n1
inactive: activity change, negative = inhibition [13] 12.9% | activity, negative = inhibition [14] -12.1% | activity change, negative = inhibition [15] 3.65% | activation (PDE inhibition) [16] -1.34%

Cc1cc(SC(NC=O)C(Cl)(Cl)Cl)ncn1 (configuration not stated)
inactive: activity change, negative = inhibition [17] -9.25% | viability change, negative = toxicity [18] 21.2% | activity change, negative = inhibition [19] -6.85% | activity, negative = inhibition [20] -12.8% | activity change, negative = inhibition [21] -6.51%
